Earlier results on one substance are cited in patent US10881675B2, “Gut health compositions” (priority 2017, dated 2021).

The subject of the data set is bifidobacterium. Particulars: in vivo.

As to xylooligosaccharides [XOS], the “intestinal side effects as compared to other prebiotics” value is listed as “significantly reduced”.
